Earlier results, collected in PMC6311893, “Computational prediction of plasma protein binding of cyclic peptides from small molecule experimental data using sparse modeling techniques” (BMC Bioinformatics, 2018).
Read-outs that look alike come from different tables or passages of the source. Some compounds may have been tested in ways that are not shown here.

System: plasma protein
Details: fraction bound to plasma protein, small molecule dataset, sheet 1-SM, ref Ingle et al., cited from earlier work

Compound | PPB (fb) | PPB (fb) (Set Dtr)
O=[N+]([O-])OCC(CO[N+](=O)[O-])(CO[N+](=O)[O-])CO[N+](=O)[O-] | 0.85 | 
CC(C)N1CCC(N(C(=O)Cc2ccccc2)c2ccc(Cl)cc2)CC1 |  | 0.85
